Data as given in US7955808B2, “Bitter taste receptors” (Deutsches Institut für Ernährungsorschung, Stiftung des …, priority 2002, dated 2011).

Chains of the proteins cited; added tags and fusions are not shown.
UniProt P59537, whole entry W35S/H212R: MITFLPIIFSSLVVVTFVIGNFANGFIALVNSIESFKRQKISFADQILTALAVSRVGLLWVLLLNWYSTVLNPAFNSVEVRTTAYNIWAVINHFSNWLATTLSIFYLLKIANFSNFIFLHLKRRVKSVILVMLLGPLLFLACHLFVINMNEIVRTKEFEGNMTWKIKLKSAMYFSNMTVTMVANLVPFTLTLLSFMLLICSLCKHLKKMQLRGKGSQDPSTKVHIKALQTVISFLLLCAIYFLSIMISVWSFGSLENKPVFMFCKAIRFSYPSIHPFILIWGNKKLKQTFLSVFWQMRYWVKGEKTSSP

Target: hTAS2R43 (Homo sapiens, UniProt P59537, H212R/W35S)
Assay: cell-based
Text: These cells stably express a chimeric G protein constructed from human Gα16 and rat gustducin. Finally, we seeded the transfected cells at a density of 3×10^3 cells per well into 96-well black-wall, clear-bottom microtiter plates (Greiner).
Co-transfection of TAS2Rs with gustducin and phospholipase-Cβ2 into HEK-293 cells. Alternatively, we transfected simultaneously plasmid DNAs encoding one of the TAS2Rs, phospholipase-Cβ2 and α-gustducin into HEK-293 cells using the lipofectamine method. […] Thereafter, the transfected cells were seeded at a density of 3×10^3 cells per well into 96-well black-wall, clear-bottom microtiter plates (Greiner).
Thereafter, cells were gently washed in HBS by an automated plate washer (Denley Cellwash, Labsystenms) and transferred to the FLIPR (Molecular Devices). The FLIPR integrates an argon laser excitation source, a 96-well pipettor, and a detection system utilizing a Charged Coupled Device imaging camera. […] Fluorescence data were collected 1 min before and 10 min after stimulation. Data were collected every 6 s before and every 1 s after agonist stimulation. […] Agonist responses were quantified using the amplitudes of the fluorescence peaks. […] Calcium traces were determined in triplicate of mock-transfected cells stimulated with the same concentration of tastant.

EC50: 1100 µM
SMILES: O=C1[N-]S(=O)(=O)c2ccccc21.[Na+] [Saccharin]
